{
  "sequences": {"note": "Protein sequences, listed by entry. Tags and fused reporters are not part of them. Lines headed by an entry give the natural chain unless they say otherwise; changes in a name come on top.", "UniProt Q9HCR9": "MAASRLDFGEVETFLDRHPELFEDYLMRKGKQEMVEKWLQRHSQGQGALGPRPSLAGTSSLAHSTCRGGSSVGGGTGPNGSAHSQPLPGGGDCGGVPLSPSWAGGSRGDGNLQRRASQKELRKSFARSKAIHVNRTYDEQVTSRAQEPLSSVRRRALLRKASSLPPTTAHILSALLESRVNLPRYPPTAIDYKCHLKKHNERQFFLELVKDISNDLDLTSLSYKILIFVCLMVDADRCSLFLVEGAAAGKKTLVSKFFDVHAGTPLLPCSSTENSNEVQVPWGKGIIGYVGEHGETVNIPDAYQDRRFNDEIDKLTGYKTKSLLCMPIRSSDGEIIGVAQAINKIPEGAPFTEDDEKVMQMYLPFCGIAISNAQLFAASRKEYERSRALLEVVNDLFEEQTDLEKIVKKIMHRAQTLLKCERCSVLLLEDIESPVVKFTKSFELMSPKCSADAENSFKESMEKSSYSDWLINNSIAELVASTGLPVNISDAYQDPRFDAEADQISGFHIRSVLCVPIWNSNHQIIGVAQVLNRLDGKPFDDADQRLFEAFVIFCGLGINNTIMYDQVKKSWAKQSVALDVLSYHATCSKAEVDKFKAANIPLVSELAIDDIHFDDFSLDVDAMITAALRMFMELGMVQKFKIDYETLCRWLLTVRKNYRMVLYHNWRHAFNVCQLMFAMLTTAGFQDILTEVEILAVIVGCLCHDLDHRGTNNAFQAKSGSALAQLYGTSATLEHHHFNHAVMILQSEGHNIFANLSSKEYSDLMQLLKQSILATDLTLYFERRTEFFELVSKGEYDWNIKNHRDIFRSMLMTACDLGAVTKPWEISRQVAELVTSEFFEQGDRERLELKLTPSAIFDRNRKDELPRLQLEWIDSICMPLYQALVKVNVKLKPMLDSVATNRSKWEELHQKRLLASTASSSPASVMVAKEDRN"},
  "source": "patent US8148386B2",
  "about": "“Agent for the prevention and treatment of prostatic hyperplasia comprising pyrazolopyrimidinone compound” (priority 2006, dated 2012)",
  "molecular_target": "PDE-11 (Homo sapiens, UniProt Q9HCR9)",
  "data": [
    {"compound": "CN1CC(=O)N2[C@H](c3ccc4c(c3)OCO4)c3[nH]c4ccccc4c3C[C@@H]2C1=O", "note": "[Cialis]", "values": [
      {"measurement": "inhibition of the activity of PDE-11", "result": "inhibits the activity of PDE-11"}
    ]}
  ]
}
